Source: patent publication US8399026B2, “Peptides isolated from spider venom, and uses thereof” (priority 2009, dated 2013)

The chains behind the UniProt entries cited, without tags or fusion partners. Where a name states a change or a piece, a line headed by the entry shows the natural chain unless it says otherwise.
UniProt P08104, whole entry: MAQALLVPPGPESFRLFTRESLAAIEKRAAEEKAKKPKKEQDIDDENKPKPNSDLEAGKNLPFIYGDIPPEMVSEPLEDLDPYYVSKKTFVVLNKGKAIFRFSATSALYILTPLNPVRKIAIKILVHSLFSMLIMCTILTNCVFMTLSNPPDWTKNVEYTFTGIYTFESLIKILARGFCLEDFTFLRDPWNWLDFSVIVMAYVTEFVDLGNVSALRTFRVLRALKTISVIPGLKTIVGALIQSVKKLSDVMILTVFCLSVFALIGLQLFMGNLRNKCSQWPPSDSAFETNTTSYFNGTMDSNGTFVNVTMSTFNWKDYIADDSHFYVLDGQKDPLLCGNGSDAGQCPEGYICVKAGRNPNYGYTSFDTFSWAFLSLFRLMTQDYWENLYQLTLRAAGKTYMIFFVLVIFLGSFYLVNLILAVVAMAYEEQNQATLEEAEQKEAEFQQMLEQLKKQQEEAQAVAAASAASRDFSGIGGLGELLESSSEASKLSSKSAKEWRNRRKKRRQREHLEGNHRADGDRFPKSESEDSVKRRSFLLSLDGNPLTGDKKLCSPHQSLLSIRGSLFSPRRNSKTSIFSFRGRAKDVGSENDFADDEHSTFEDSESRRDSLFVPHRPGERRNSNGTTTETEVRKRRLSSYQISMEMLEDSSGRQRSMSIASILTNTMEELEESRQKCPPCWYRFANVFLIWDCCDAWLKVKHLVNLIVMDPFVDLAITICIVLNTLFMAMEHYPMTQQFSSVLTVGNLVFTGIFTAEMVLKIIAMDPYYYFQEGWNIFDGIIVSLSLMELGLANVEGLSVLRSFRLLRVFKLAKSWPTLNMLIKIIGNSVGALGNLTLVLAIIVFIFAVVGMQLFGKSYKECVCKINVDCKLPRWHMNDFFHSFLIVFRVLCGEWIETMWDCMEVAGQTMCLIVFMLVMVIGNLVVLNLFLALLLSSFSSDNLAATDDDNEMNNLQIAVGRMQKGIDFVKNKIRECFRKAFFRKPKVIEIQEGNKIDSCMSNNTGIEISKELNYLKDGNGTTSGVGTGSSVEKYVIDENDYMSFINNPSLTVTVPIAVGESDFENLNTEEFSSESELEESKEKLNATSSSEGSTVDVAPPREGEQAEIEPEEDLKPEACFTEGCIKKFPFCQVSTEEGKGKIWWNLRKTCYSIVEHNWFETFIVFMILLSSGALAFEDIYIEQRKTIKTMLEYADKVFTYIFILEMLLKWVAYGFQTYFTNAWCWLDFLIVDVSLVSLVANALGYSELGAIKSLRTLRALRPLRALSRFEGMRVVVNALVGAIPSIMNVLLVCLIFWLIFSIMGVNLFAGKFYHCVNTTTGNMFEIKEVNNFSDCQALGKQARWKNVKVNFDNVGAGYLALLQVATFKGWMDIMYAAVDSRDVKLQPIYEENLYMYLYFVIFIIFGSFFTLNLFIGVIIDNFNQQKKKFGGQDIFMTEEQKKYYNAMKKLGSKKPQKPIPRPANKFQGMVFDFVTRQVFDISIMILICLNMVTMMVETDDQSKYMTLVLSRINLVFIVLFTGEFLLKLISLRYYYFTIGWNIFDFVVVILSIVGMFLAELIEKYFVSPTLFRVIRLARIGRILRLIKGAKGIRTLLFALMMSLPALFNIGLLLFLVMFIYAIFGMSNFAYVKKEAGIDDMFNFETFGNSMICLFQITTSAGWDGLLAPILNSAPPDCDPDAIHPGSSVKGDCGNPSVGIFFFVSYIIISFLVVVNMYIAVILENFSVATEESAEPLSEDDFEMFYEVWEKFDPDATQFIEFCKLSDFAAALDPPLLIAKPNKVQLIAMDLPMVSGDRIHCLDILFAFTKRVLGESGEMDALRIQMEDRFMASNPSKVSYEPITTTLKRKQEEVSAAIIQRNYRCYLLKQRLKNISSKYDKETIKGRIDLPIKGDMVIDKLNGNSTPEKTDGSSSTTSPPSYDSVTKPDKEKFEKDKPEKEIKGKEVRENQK
UniProt Q62968, whole entry: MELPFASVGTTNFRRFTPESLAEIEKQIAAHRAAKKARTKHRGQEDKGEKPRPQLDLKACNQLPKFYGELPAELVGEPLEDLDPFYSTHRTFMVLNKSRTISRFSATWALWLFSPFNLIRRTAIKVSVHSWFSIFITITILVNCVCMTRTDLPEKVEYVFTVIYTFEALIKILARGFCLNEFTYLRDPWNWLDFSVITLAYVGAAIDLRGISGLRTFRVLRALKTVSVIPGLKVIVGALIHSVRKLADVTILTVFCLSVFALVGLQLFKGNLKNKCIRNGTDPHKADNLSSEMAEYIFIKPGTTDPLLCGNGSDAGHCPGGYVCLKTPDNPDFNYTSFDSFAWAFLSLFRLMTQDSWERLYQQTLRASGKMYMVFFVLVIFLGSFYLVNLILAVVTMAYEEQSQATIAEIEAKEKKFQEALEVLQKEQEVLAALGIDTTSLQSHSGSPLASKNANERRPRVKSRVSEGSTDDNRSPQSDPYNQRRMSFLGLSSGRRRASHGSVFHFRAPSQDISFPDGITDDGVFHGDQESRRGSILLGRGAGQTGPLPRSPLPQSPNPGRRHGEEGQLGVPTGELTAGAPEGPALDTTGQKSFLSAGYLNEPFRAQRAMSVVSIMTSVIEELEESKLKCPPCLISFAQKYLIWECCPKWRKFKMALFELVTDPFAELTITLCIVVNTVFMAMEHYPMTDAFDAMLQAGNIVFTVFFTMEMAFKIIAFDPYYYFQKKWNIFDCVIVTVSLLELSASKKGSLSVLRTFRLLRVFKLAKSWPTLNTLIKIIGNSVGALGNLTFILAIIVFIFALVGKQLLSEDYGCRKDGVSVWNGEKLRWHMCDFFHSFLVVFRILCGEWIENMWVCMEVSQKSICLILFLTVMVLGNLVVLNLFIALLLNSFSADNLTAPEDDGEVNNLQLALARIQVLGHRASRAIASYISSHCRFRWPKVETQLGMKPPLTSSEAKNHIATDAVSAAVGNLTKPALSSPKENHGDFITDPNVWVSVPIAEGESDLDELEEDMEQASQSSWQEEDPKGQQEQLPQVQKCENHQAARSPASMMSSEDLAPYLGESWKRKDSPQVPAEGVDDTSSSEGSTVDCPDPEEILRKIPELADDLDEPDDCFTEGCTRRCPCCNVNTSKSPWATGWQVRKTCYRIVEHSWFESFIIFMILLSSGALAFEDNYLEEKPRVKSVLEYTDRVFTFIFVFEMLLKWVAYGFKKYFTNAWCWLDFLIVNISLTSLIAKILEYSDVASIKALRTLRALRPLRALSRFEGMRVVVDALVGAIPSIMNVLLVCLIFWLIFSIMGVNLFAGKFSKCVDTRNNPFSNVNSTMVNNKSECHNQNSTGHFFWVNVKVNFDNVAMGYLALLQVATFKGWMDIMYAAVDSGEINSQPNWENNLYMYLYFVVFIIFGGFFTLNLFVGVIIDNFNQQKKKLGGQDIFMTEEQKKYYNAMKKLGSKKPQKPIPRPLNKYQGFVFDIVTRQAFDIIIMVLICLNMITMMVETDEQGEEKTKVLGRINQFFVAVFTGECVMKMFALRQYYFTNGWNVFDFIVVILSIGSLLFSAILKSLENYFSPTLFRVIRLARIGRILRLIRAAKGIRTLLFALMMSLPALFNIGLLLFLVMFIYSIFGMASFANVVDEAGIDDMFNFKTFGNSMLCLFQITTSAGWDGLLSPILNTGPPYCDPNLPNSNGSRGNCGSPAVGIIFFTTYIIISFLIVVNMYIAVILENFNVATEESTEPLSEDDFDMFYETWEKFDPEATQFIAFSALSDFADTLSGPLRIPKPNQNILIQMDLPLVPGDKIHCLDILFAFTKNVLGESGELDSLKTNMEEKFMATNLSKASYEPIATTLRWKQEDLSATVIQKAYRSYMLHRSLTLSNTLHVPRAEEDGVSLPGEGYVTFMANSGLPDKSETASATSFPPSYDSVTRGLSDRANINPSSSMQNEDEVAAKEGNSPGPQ
UniProt Q12809: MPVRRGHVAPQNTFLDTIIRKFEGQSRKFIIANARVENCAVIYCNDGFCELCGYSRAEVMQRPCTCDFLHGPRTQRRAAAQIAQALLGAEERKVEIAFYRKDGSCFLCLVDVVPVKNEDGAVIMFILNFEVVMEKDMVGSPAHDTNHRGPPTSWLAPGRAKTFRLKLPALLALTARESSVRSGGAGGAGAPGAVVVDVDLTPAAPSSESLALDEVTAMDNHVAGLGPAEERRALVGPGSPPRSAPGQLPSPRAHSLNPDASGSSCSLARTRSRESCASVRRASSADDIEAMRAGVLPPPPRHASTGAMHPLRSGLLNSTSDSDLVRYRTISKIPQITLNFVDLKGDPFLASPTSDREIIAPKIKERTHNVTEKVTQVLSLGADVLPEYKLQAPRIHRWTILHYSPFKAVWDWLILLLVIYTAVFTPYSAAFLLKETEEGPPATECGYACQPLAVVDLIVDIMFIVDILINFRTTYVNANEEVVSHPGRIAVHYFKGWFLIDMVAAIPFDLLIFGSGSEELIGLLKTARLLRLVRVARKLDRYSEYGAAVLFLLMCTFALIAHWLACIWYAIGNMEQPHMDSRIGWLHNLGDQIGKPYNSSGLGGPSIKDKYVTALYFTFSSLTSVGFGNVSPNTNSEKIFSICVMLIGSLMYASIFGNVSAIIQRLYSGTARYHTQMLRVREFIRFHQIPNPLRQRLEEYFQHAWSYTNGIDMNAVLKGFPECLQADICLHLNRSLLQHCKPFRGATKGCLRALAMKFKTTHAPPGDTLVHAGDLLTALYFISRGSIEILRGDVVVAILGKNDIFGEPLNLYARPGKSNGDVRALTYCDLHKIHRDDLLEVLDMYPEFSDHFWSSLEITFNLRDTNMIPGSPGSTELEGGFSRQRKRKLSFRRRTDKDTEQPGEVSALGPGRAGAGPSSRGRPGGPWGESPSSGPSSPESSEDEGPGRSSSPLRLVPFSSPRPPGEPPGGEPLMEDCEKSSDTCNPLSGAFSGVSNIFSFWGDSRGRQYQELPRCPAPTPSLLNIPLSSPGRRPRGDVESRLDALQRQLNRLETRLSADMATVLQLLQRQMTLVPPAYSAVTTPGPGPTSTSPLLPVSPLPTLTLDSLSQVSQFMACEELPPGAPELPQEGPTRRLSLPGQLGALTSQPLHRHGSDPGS

Assays:
rNaV1.3 channels = target: T1, rNaV1.3 channels (Rattus norvegicus, UniProt P08104); assay: cell-based
T1 construct: expressed in transfected cells; host or cells: HEK-293

rat DRG neurons = type: cell-based
rNaV1.8 channels = target: T2, rNaV1.8 channels (Rattus norvegicus, UniProt Q62968); assay: Blocking of NaV1.8 channel currents, patch clamp, voltage ramp, ND7-23 cells; type: cell-based; conditions: text of Example 3; read-out: apparent IC50, NaV1.8 channels
T2 construct: expressed in transfected cells; host or cells: ND7-23

[1] = system: mouse embryonic stem cells derived cardiomyocytes (mES-CM)
hKV11.1 (hERG) channels = hKV11.1 (hERG) channels (Homo sapiens, UniProt Q12809)

## CC(C)C[C@@H]1NC(=O)[C@@H](NC(=O)[C@@H](N)CC(=O)O)CSSC[C@@H]2NC(=O)[C@@H]3CSSC[C@@H](C(=O)N[C@@H](CCCCN)C(=O)N[C@@H](Cc4ccc(O)cc4)C(=O)N[C@@H](CCCCN)C(=O)N[C@@H](CC(C)C)C(=O)N[C@@H](Cc4c[nH]c5ccccc45)C(=O)O)NC(=O)[C@H](Cc4c[nH]c5ccccc45)NC(=O)[C@H](CCCCN)NC(=O)[C@H](CC(=O)O)NC(=O)[C@H](CCCNC(=N)N)NC(=O)[C@H](CCCNC(=N)N)NC(=O)[C@H](CC(N)=O)NC(=O)[C@H](CSSC[C@H](NC(=O)CNC(=O)[C@H](CCCCN)NC(=O)[C@H](Cc4ccccc4)NC(=O)[C@H](Cc4c[nH]c5ccccc45)NC(=O)CNC1=O)C(=O)N[C@@H](CC(=O)O)C(=O)N1CCC[C@H]1C(=O)N[C@@H](CC(=O)O)C(=O)N[C@@H](CC(N)=O)C(=O)N[C@@H](CC(=O)O)C(=O)N[C@@H](CCCCN)C(=O)N3)NC(=O)[C@H](CCCCN)NC(=O)[C@H](Cc1ccc(O)cc1)NC(=O)CNC(=O)[C@H](CCC(=O)O)NC2=O [Peptide F]
rNaV1.3 channels
  potency range in inhibiting the target channels: sub-nanomolar range
rNaV1.3 channels; HEK cells, each data point average of 3-5 experiments
  dose response curves of native and synthetic peptides for inhibiting rNaV1.3 channels: overlap completely
rNaV1.3 channels; text of Example 3, read-out: apparent IC50, NaV1.3 channels
  IC50: 0.13 µM
Rat DRG neurons; concentration in brackets in the cell: A 5.00, B 0.70, C 5.00, D 0.75, E 0.83, F 1.00 μM, mean ± S.D
  % inhibition (mean ± S.D) of AP in rDRG & [concentration (μM)]: 46 ± 24 [1.00] %
Rat DRG neurons; dose higher than the IC50 for NaV1.3: A 5 μM, B 0.7 μM, C 5 μM, D 0.75 μM, E 0.83 μM, F 1 μM
  inhibition of DRG action potentials: inhibited DRG action potentials
rNaV1.8 channels
  IC50: 0.17 µM
[1]; A 3.8 μM, B 9 μM, C 5 μM, D 0.75 μM, E 0.83 μM, F 1 μM
  effect on the frequency or the amplitude of action potentials in cardiomyocytes: affected action potential frequency
[1]; B 9 μM, F 1 μM
  inhibition of action potentials in cardiomyocytes: about 20%
[1]; concentration in brackets in the cell: A 3.75, B 9.00, C 5.00, D 0.75, E 0.83, F 1.00 μM, mean ± S.D
  % inhibition (mean ± S.D) of AP frequency in mES-CM & [concentration (μM)]: 25 ± 23 [1.00] %
hKV11.1 (hERG) channels; each peptide at 10 × its IC50 for Nav1.3, mean ± S.D
  % inhibition (mean ± S.D) of hERG at concentration × 10 IC50 for Nav1.3: 6 ± 7%
hKV11.1 (hERG) channels; highest dose examined, ten times the IC50 for NaV1.3
  effect on hERG channel currents: no effect
